Data taken from patent US10011874B2, “Androgen receptor mutation” (NOVARTIS AG, priority 2013, dated 2018).

Key:
[1] = test system: F877L/T878A mutant AR (KLK3, NKX3-1 expression); test: qPCR of AR target genes in LNCaP engineered to express F877L/T878A AR; assay type: cell-based; settings: 10% FCS; 10 μM; FIG. 5a, FIG. 15
[2] = test system: AR localization in T878A expressing LNCaP line; test: Nuclear/cytoplasmic fractionation of exogenous AR, T878A line; assay type: cell-based; settings: 10 μM, 24 h
[3] = test system: LNCaP clone #1 (AR-F877L-bearing) tumors; settings: clone #1 xenograft mice; 30 mg/kg daily

In the case of `CNC(=O)c1ccc(N2C(=S)N(c3ccc(C#N)c(C(F)(F)F)c3)C(=O)C2(C)C)cc1F` [MDV3100, 4-{3-[4-cyano-3-(trifluoromethyl)phenyl]-5,5-dimethyl-4-oxo-2-sulfanylideneimidazolidin-1-yl}-2-fluoro-N-methylbenzamide], the “AR pathway activity in presence of compound” value [1] is reported as “significant rescue of AR pathway activity”, the “nuclear localization of AR” value [2] is reported as “significantly impaired” and the “body weight during treatment period” value [3] is reported as “No significant body weight loss”.
